Target: ecdysteroid receptor complex in Plodia interpunctella (IAL-PID2) nuclear extract (Plodia interpunctella, UniProt Q6RVD3)
Assay: Competitive 3H-ponasterone A binding assay, Plodia nuclear ecdysone receptor extract
Conditions: 3H-ponasterone A displacement
Method: The cell line IAL-PID2, derived from imaginal wing discs of the lepidopteran Plodia interpunctella was obtained from H. Oberlander and maintained as described (Lynn, E. E. and Oberlander, H., (1983), J. Insect Physiology, 29, 591-96). A 300 ml stationary phase culture of P. interpunctella cells was centrifuged at 700×g for 10 mm at room temperature to pellet the cells. The supernatant was aspirated and the cellular pellet resuspended in 35 ml TMT (TM buffer with 0.1% Triton X-100). The suspension was homogenized with twenty up and down strokes of a Dounce homogenizer on ice. Homogenate was incubated on ice for 10 minutes and then centrifuged for 15 min at 900×g. The pellet was resuspenced in 15 ml TM buffer and centrifuged at 2,300×g. This pellet was extracted in TMK buffer (TM buffer with 800 mM KCl) by using a glass rod to crush the pellet until a gelatinous slurry was formed and incubated on ice for 15 minutes. The extract was centrifuged at 100,000×g in a swinging bucket rotor for 60 minutes. The supernatant, which constituted the nuclear extract, was desalted on a 10 DG desalting column (Bio-Rad, 732-2010) equilibrated with T-buffer. The total protein concentration in the nuclear extract was adjusted to 5 mg per ml with T-buffer containing 1 mM DTT. […]

Sequences of proteins named here, by UniProt entry; tags and fusion partners are left off. Residues count along the entry.
UniProt Q6RVD3, 1-541: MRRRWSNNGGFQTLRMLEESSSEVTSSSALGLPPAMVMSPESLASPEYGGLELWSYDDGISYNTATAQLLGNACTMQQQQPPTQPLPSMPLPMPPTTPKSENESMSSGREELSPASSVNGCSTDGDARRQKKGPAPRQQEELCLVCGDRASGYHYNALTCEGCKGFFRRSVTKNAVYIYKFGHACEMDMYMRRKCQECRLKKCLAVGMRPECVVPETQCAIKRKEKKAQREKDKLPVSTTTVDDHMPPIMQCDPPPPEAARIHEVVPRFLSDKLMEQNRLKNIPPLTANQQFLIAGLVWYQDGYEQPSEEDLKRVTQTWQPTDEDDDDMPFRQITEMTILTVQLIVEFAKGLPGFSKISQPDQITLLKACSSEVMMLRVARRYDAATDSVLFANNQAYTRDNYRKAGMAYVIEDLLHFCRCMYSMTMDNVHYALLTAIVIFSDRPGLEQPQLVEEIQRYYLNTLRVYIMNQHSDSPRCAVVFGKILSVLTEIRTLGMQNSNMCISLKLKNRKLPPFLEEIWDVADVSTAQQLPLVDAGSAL
UniProt Q6IVK1, 1-415 partner: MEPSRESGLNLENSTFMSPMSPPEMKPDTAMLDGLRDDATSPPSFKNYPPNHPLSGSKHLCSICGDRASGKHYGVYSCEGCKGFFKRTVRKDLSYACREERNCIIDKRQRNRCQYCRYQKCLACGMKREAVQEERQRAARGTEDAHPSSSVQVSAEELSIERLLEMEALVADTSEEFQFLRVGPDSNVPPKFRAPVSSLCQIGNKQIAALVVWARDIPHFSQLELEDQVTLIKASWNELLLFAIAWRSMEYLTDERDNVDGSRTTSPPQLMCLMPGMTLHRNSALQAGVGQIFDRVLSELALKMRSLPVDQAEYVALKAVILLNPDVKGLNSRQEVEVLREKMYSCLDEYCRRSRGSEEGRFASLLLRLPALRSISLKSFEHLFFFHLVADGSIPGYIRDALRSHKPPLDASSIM

SMILES	Plodia log(1/IC50)
CCc1ccc(C(=O)NN(C(=O)c2cc(C)cc(C)c2)C(C)(C)C)c(F)c1	9.24
CCc1c(C(=O)NN(C(=O)c2cc(C)cc(C)c2)C(C)(C)C)ccc2c1CCO2	8.85
